This is an account of results in publication PMC3508296.

By UniProt entry, the sequences of proteins in these tests, tags left out. Residues count along the entry.
UniProt P02751, 32-2477: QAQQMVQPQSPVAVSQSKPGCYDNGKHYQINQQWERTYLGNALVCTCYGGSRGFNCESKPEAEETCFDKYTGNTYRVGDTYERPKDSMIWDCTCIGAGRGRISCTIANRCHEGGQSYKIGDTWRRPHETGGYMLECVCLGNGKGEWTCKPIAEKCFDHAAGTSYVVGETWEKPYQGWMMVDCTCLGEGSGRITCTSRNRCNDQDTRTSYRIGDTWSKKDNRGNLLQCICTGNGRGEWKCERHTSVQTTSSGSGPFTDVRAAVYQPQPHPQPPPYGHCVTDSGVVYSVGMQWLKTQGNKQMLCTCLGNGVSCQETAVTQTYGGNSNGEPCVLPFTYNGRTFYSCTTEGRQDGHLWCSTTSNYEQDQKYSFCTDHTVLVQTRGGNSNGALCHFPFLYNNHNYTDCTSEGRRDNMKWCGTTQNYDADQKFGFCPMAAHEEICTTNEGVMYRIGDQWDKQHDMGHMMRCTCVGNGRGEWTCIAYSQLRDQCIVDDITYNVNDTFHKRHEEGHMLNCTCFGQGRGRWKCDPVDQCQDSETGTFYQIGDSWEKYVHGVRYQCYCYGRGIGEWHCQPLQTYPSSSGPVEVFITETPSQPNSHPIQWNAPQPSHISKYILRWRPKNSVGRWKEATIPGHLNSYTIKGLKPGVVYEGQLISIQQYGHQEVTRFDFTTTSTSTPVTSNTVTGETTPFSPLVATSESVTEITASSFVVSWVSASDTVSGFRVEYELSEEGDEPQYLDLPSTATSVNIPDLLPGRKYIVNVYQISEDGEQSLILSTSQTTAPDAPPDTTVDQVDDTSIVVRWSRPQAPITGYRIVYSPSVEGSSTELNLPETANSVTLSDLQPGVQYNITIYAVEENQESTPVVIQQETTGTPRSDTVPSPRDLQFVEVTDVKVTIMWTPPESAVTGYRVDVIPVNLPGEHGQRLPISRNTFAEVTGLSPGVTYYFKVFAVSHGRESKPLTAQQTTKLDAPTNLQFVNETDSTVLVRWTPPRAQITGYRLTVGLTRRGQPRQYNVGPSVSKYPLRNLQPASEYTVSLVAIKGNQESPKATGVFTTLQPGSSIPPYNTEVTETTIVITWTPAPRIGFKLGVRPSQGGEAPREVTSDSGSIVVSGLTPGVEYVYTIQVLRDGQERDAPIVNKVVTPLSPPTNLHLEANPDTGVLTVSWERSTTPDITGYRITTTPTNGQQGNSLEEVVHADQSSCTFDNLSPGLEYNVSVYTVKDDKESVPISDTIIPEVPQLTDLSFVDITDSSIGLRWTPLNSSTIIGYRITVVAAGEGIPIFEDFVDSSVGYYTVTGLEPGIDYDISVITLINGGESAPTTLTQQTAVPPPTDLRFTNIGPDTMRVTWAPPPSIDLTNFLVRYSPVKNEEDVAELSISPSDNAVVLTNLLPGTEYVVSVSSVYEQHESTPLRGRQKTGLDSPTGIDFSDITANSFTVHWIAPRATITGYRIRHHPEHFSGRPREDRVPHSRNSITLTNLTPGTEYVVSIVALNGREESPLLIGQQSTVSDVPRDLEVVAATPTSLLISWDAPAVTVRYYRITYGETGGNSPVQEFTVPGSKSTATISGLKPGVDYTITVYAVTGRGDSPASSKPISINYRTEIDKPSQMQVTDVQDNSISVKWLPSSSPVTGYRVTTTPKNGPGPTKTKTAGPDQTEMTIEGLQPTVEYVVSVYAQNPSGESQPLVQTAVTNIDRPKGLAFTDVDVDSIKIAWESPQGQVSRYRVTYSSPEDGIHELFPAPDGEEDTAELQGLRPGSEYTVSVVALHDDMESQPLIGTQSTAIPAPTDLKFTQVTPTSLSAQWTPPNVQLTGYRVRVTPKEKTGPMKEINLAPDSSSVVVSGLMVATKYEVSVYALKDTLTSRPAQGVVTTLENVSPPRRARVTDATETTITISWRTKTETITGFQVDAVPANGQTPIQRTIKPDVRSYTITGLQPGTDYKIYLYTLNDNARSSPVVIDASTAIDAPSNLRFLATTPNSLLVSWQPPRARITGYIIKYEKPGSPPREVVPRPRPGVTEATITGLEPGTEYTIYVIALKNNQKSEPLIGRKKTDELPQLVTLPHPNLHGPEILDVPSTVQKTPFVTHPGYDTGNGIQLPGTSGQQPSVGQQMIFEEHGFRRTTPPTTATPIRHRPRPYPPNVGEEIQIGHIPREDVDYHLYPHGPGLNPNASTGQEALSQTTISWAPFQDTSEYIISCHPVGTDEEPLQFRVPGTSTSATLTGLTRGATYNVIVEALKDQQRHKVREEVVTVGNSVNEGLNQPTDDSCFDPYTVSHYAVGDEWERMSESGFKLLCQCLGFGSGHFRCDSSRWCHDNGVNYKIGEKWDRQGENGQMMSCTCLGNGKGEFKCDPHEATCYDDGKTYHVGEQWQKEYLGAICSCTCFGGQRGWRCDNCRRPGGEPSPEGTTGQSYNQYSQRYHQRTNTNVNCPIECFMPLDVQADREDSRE

For the test, the target named is fibronectin (UniProt P02751). Nature of the test: SPR.

The term Kd denotes the concentration at which binding is half-saturated. What is called koff is the rate constant with which the complex falls apart. Low values mean a long-lived complex, high ones a short-lived complex. One may read the kon as the second-order rate constant of association. Low readings indicate slow association, high ones fast association.

Consider “RevA (natural protein; other documents disagree on this pair)”, for which the Kd amounted to 880 nM, the off-rate (koff) was determined as 0.15 s⁻¹ and the kon came to 171000 M⁻¹ s⁻¹.
